Values of other authors as cited in article PMC5344956 (Cancer Chemotherapy and Pharmacology, 2017).

System: BCR–ABL
Settings: preclinical in vitro studies ref 7, 9; cited from earlier work

## Cc1ccc(C(=O)Nc2ccc(CN3CCN(C)CC3)c(C(F)(F)F)c2)cc1C#Cc1cnc2cccnn12.Cl [Ponatinib, 3-(imidazo[1,2-b]pyridazin-3-ylethynyl)-4-methyl-N-(4-((4-methylpiperazin-1-yl)methyl)-3-(trifluoromethyl)phenyl)benzamide hydrochloride]
  concentration that suppresses the emergence of any single mutation: 40 nM
